Source: US20250073184A1, “CANNABIGEROQUINONE COMPOUNDS, COMPOSITIONS INCLUDING SUCH COMPOUNDS, AND USES OF SUCH COMPOUNDS AND COMPOSITIONS” (Juva Life, Inc., priority 2021, published 2025)

Protein sequences, listed by entry. Tags and fused reporters are not part of them.
UniProt P34972, whole entry: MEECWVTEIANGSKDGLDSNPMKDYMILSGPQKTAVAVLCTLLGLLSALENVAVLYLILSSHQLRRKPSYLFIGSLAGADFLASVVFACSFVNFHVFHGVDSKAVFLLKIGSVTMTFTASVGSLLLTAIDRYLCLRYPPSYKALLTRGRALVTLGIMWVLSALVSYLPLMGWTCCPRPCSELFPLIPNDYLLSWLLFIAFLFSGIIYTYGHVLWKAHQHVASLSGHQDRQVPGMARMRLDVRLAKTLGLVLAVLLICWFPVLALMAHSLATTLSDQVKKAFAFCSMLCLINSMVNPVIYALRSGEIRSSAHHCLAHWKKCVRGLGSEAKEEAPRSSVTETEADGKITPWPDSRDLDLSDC

Target: T1, cannabinoid receptor 2 (CNR2) (Homo sapiens, UniProt P34972)
T1 construct: host or cells: CHO-K1
Assay: CB2 receptor agonist assay (cAMP Hunter eXpress, CNR2 CHO-K1 cells)
Assay type: cell-based
Experimental: The assays were performed in cAMP Hunter eXpress cells engineered to overexpress naturally Gi/Go-coupled wildtype cannabinoid receptor 1 (CNR1) or cannabinoid receptor 2 (CNR2) in CHO-K1 cell type. In these cells, CB1 and/or […] agonists inhibit production of intracellular cAMP in response to stimulation with Forskolin. cAMP levels are determined using luminogenic detection reagents provided with the Hunter eXpress cAMP detection kit.
• Assay ready CNR1 CHO-K1 cells were obtained from Eurofins/Discover X, cat #95-0071E2 • Assay ready CNR2 CHO-K1 cells were obtained from Eurofins/Discover X, cat #95-0183E2 • Hunter eXpress cAMP detection kit was also from Discover X. The kit includes all cAMP detection reagents, Forskolin, complete cell plating medium and cell assay buffer.
The Assay-Ready CNR1 CHO-K1 or CNR2 CHO-K1 cells were thawed and re-suspended in pre-warmed Assay Complete plating medium and inoculated into 96 well plate at a density of 30,000 cells in 100 μL. The plates with cells were incubated for 24 h at 37° C. in 5% CO2. […] The cells were stimulated with the Forskolin/compound buffer for 30 min. […] The plate was read on Biotek Synergy Neo2 reader in luminescent mode. […] Relative luminescence units (RLUs) were plotted against compound concentration to determine apparent EC50 values of the agonist compounds.

Substance: Cannabigerol Quinone [Formula VI]
- selectivity as an agonist for CB2 receptor activation over CB1 receptor activation: good selectivity
- Selectivity for CB2 over CB1 (fold) (ratio of agonist IC50 values): >25 fold
